Reference: patent US8962641B2, “Pyrimidine-substituted pyrrolidine derivatives, pharmaceutical compositions and uses thereof” (Boehringer Ingelheim International GmbH, priority 2013, dated 2015)

Chains of the proteins cited; added tags and fusions are not shown. Residues count along the entry.
UniProt O00763, 129-2458: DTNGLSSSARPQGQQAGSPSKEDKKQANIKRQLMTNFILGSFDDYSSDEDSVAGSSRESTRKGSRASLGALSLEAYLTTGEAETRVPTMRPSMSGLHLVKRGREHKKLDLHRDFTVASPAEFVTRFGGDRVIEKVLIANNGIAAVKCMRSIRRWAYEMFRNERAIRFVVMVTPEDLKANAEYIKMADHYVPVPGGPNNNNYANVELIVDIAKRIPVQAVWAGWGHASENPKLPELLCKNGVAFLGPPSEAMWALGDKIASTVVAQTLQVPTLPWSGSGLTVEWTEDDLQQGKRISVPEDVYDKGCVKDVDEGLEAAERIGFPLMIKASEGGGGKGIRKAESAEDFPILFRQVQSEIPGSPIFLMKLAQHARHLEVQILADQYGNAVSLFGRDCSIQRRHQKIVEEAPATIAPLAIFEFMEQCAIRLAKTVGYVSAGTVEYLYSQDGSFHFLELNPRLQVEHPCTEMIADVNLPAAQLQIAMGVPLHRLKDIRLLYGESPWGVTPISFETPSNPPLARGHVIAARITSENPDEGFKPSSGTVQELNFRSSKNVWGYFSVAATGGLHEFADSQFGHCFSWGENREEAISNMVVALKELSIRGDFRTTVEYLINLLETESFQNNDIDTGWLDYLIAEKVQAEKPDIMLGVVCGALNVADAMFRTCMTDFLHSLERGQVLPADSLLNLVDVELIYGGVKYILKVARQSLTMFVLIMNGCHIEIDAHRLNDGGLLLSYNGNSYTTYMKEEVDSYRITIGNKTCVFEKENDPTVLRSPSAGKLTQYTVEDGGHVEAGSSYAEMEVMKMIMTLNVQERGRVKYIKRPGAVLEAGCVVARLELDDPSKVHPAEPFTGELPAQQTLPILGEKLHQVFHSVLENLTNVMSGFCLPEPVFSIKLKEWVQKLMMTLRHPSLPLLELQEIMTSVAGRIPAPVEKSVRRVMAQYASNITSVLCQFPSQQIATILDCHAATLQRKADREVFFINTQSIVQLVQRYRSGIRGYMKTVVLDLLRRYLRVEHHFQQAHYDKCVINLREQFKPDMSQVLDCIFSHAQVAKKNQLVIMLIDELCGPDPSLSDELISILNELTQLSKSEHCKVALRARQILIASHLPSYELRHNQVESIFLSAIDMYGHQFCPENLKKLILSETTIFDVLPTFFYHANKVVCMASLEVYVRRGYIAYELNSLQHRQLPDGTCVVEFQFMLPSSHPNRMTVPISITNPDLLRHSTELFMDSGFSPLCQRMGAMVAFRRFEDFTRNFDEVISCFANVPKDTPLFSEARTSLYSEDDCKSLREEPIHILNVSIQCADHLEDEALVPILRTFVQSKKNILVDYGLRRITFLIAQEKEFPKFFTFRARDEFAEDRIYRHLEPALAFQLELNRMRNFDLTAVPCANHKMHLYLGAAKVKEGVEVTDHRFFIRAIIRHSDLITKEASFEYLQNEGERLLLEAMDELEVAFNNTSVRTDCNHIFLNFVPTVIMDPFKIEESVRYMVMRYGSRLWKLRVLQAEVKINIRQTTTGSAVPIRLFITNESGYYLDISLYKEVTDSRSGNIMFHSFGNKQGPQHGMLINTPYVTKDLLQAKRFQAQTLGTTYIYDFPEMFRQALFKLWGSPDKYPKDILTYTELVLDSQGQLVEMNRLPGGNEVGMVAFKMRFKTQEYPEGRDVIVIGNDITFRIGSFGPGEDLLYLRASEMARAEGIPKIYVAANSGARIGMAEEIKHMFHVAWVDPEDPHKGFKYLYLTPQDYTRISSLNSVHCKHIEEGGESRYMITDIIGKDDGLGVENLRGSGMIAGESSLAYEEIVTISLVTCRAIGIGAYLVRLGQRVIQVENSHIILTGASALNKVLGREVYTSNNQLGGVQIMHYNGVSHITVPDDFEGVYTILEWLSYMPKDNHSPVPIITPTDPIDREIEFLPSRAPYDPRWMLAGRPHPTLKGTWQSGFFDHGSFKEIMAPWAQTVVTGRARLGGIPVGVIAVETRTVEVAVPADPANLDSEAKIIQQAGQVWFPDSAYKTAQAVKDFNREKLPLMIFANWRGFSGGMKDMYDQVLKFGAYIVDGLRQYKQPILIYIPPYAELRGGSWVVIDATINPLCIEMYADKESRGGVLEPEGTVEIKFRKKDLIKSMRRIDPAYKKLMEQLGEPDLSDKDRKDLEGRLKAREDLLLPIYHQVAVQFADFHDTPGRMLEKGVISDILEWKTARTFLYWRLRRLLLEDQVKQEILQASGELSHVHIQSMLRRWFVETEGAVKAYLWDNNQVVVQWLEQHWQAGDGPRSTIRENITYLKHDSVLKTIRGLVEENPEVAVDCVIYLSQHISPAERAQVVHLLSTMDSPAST

target: human ACC2 (Homo sapiens (Human), UniProt O00763); test: ACC2 assay (spectrophotometric 384 well assay, NADH-linked kinetic method); format: biochemical; conditions: hACC2 construct lacking 128 N-terminal amino acids; coupled lactate dehydrogenase/pyruvate kinase reaction, 340 nm, 25° C.
Protocol: Spectrophotometric 384 Well Assay
Malonyl CoA formation by acetyl CoA carboxylases is stoichometrically linked to the consumption of ATP. ACC2 activity is measured in a NADH-linked kinetic method measuring ADP generated during the ACC reaction using a coupled lactate dehydrogenase/pyruvate kinase reaction.
The protein is then expressed in insect cells using a baculoviral expression system. Protein purification is performed by anion exchange.
All compounds are dissolved in dimethyl sulfoxide (DMSO) to a concentration of 10 mM.
The enzymatic reaction is then started by addition of a mixture of NADH, acetyl Coenzyme A (both 200 μM f.c.) and ATP (500 uM f.c.). The decrease of the optical density (slope S) is then determined at 25° C. at a wavelength of 340 nm over 15 minutes in a spectrophotometric reader.
Each assay microtiter plate contains wells with vehicle instead of compound as controls for the non-inhibited enzyme (100% CTL; ‘HIGH’) and wells without acetyl-CoA as controls for non-specific NADH degradation (0% CTL; ‘LOW’).

Structure (SMILES) | IC50
CO[C@H]1CCN(c2ncc(Cl)c(N3CC[C@@H](Oc4ccc([C@H](C)NC(C)=O)cc4)C3)n2)C1 [Example 8.160] | 407 nM
CC(=O)N[C@@H](C)c1ccc(O[C@@H]2CCN(c3ccnc(N4CC5CCCC5C4)n3)C2)cc1 (stereo partly shown) [Example 8.15] | 410 nM
COC1CCCN(c2nccc(N3CC[C@@H](Oc4ccc([C@H](C)NC(C)=O)cc4)C3)n2)C1 (stereo partly shown) [Example 8.227] | 418 nM
CC(=O)N[C@@H](C)c1ccc(O[C@@H]2CCN(c3nc(OC4CCCC4)ncc3F)C2)cc1 [Example 7.16] | 405 nM
CC(=O)N[C@@H](C)c1ccc(O[C@@H]2CCN(c3ncnc(N4CC(F)(F)C4)c3F)C2)cc1 [Example 8.249] | 404 nM
COc1c(OCC2CC2)ncnc1N1CC[C@@H](Oc2ccc([C@H](C)NC(=O)C3CC3)cc2)C1 [Example 10.3] | 406 nM
CC(=O)N[C@@H](C)c1ccc(O[C@@H]2CCN(c3ncc(Oc4ccccn4)cn3)C2)cc1 [Example 7.13] | 410 nM
